# Assay outcomes from PubChem BioAssay.
# The list is not random: actives were taken first. Their share in the collection is about 1.5%.
# Env fusion inh = HIV envelope-mediated fusion inhibition; HeLa-JRFL Env/CEM21 cell fusion, luciferase; 360,000 tested, 1.1% active; inhibition, % at 12.3 µM;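 active = mean replicate inhibition score of at least 50 and every replicate individually at or above 50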
# FN deposition inh = fibronectin deposition inhibition. AH1F fibroblasts, Alexa488-fibronectin deposition fluorescence, overnight. inhibition, % at 12.6 µM. 350,000 tested, 0.086% active. AID 743247;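 active = mean inhibition across replicates of 30% or more, regardless of how many single replicates reach that level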
#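 Material: AH1F fibroblast monolayer depositing Alexa488-labelled fibronectin into matrix | Input: 10000 AH1F cells/well | Medium: DMEM plus 2% serum, read in PBS | Reagent: Alexa488-fibronectin, 24 nM final in well | Compound dosing: One dose per compound, pinned | Schedule: 1 h adhesion, overnight exposure | Measured by: Fluorescence at 485 nm excitation, 525 nm emission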
# UUG fidelity = alters start codon recognition fidelity in yeast; S. cerevisiae UUG-firefly luciferase reporter, luminescence/redox ratio; activity score, % at 18.7 µM; actives 0.13% (n = 350,000);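 active means replicate mean at a twofold rise or more, about +100% in these data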;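 further: firefly luciferase made from a UUG start codon reports start codon fidelity; reporter light over untreated wells divided by growth signal over untreated wells; some hits fall short of that in this replicate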
# miR122 inh = inhibitors of miR-122 in Huh7 cells; Huh7 miR-122 Renilla luciferase sensor, 48 h; neutral wells = 0, positive control = 100; activation (reporter increase), % at 12.5 µM; 340,000 tested, 0.3% active; AID 602342;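 active = mean replicate activation score at least 90 and every replicate individually at or above 90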;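 also: higher luciferase means less miR-122 activity so hits act as miR-122 inhibitors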
# PGC1a acetyl inh = PGC1a acetylation modulation, inhibitor mode; U2OS PGC1a acetylation, AlphaScreen anti-acetyl-lysine; with virally co-expressed GCN5 acetyltransferase; inhibition, % at 15.6 µM; 350,000 tested, 0.17% active;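 active = every replicate shows inhibition of at least 40%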
# Cneo AK release = causes C. neoformans cell lysis; adenylate kinase release luminescence, 4 h; normalised: neutral wells 0, clomiphene wells 100; lysis activity, % at 15 µM; 360,000 tested, 0.2% active;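 active = mean lysis activity across replicates of at least 80%, whatever share of replicates individually reach that level; inactive = mean lysis activity below 80%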
#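 Material – Cryptococcus neoformans yeast cells · Quantity – 5 × 10^6 yeast cells/mL · Buffer or medium – YPD medium · Compound – single dose · Timing – 4 h static compound exposure, 37 °C, read 1 h post-reagent · Signal – adenylate kinase release luminescence · Read-out basis – lysis from increased AK signal · Benchmarks – Clomiphene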
# A number is an active result; - = inactive; . = no result given; [ ] = remark or other dose.
SMILES,Env fusion inh,FN deposition inh,UUG fidelity,miR122 inh,PGC1a acetyl inh,Cneo AK release
O=C1C=C(c2ccc(F)cc2OCc2ccccc2)C[C@@H](c2ccc(Cl)cc2)C1,76,-,-,-,-,-
COCCOC(=O)c1c(C)oc2ccc(NS(=O)(=O)c3ccc(C)cc3)cc12,-,-,-,103,-,-
Cc1ccc(C(=O)NCc2ccccn2)cc1S(=O)(=O)N1CCCCC1,90,.,-,-,-,-
Cc1ccc(S(=O)(=O)N2CCCCCC2)cc1C(=O)NCc1ccccn1,-,-,-,.,.,-
N#C[C@H]1[C@@H](c2ccccc2C2=CCCCC2)[C@H](CO)N1S(=O)(=O)c1ccccc1,.,-,.,.,-,.
N#C[C@H]1[C@H](c2ccccc2C2=CCCCC2)[C@@H](CO)N1S(=O)(=O)c1ccccc1,.,67,.,.,-,.
O=C1OC(CN(Cc2ccccc2)Cc2ccccc2)CN1N=Cc1ccc([N+](=O)[O-])o1 (stereo not given),83,-,-,-,-,-
O=C1OC(CN2CCOCC2)CN1N=Cc1ccc([N+](=O)[O-])o1 (stereo not given),-,-,-,-,-,-
COc1cc(=O)oc(CCC(C)O)c1C (stereo not given),-,-,-,-,-,-
O=C(Nc1ccnn1C1CCN(Cc2ccc(OC(F)F)cc2)CC1)C1CCCC1,.,-,-,-,.,-
C[C@@H]1CN([C@@H](C)CO)C(=O)c2cccc(NC(=O)c3ccc(-c4nccs4)cc3)c2O[C@H]1CN(C)CC1CC1,57[16.7 µM],-,-,-,-,-
C[C@H](CO)N1C[C@H](C)[C@H](CN(C)Cc2ccc(C(=O)Nc3ccccc3N)cc2)Oc2c(NC(=O)c3ccc(-c4nccs4)cc3)cccc2C1=O,-,.,-,-,-,-
C[C@@H]1CN([C@@H](C)CO)C(=O)c2cccc(NC(=O)c3ccc(-c4nccs4)cc3)c2O[C@@H]1CN(C)Cc1ccc(C(=O)Nc2ccccc2N)cc1,-,.,-,213[16.7 µM],-,-
C[C@H](CO)N1C[C@H](C)[C@@H](CN(C)CC2CC2)Oc2c(NC(=O)c3ccc(-c4nccs4)cc3)cccc2C1=O,-,-,-,-,-,-
COc1ccccc1C#Cc1ccc2c(c1)O[C@H](CN(C)Cc1ccncc1)[C@H](C)CN([C@@H](C)CO)S2(=O)=O,-,.,-,-,-,-
O=C(Nc1ccc(C(F)(F)F)cc1Cl)c1ccc(Cn2cc(Br)cn2)o1,.,.,-,-,-,-
O=C(Nc1cccc(C(F)(F)F)c1)c1ccc(Cn2cc(Br)cn2)o1,79,.,-,-,-,-
CC(=O)C1=C(C)NC(=S)NC1c1ccccc1 (stereo not given),74,-,.,.,.,.
CS(=O)(=O)N1CCN(C(=O)c2ccc(F)cc2)CC1,.,.,-,-,-,-
O=C(Nc1nc2ccccc2[nH]1)c1cccc([N+](=O)[O-])c1,-,-,.,.,-,.
O=C(Cc1nc2ccccc2[nH]1)c1cccc([N+](=O)[O-])c1,73,-,.,-,.,.
O=C(O)CCSc1nc2ccccc2s1,78,-,-,-,-,-
COCC(=O)N1[C@H](C(=O)Nc2ccccc2)[C@@H](CO)[C@@H]2Cn3c(ccc(-c4ccncc4)c3=O)[C@@H]21,.,-,.,-,.,-
CCC(=O)N1[C@H](C(=O)Nc2ccccc2)[C@@H](CO)[C@@H]2Cn3c(ccc(-c4ccncc4)c3=O)[C@@H]21,.,.,.,-,-,99
NS(=O)(=O)c1ccc(CCNC(=O)/C=C/c2ccc(S(=O)(=O)N3CCOCC3)cc2)cc1,.,-,-,-,-,-
SMILES,Env fusion inh,FN deposition inh,UUG fidelity,miR122 inh,PGC1a acetyl inh,Cneo AK release
O=C(Nc1ccc(F)cc1)Nc1cc(OCC(F)(F)F)cc(OCC(F)(F)F)c1,70,-,.,.,.,.
CC(C)n1nc(C(=O)Nc2cccc(S(=O)(=O)NCc3ccco3)c2)c2ccccc2c1=O,-,-,.,99,-,.
Cc1ccc(Cl)cc1N1CCN(C(=O)C2CCN(c3nnc(-n4cccc4)s3)CC2)CC1,56,-,-,-,-,-
Cc1cccc(N2CCN(C(=O)C3CCN(c4nnc(-n5cccc5)s4)CC3)CC2C)c1 (stereo not given),-,-,-,-,-,-
COc1ccc(C(=O)NNC(=O)c2ccccn2)cc1,62,-,.,.,.,.
COc1ccc(C(=O)O/N=C(\N)c2ccccn2)cc1,70,-,-,-,-,-
